Results: patent US20210275547A1, “Methods of Modulating Activity of a Cyclic Dinucleotide (CDN) with a CDN Transporter-Modulating Agent” (THE REGENTS OF THE UNIVERSITY OF CALIFORNIA, priority 2018, published 2021)

Columns and labels:
[1] = tested on: THP-1 cells expressing an ISRE-driven tdTomato reporter; assay: ISRE-tdTomato reporter induction in THP-1 cells on stimulation; assay type: cell-based, human; conditions: synthetic CDN 1.7 μg/ml for 20 h
From the text: To identify genes encoding molecules involved in this process, a reporter system was created to detect STING activation in response to extracellular CDNs, in order to perform a genetic screen. The reporter was composed of an Interferon Stimulatory Response Element (ISRE) cassette driving the expression of the fluorescent protein tdTomato. The reporter system was expressed in the human monocytic cell line THP-1 to confirm that the tdTomato reporter was induced in response to stimulation with human interferon-beta (hIFNβ) or a synthetic CDN (FIG. 1A). Subsequently, THP-1 cells containing the reporter were transduced with a genome-wide library of guide RNAs (gRNAs), which suppress expression of target genes. The library targeted 20,000 genes within the human genome. The gRNA library-expressing THP-1 cells were stimulated with synthetic CDN, and the cells were subsequently sorted into two populations based on either low (hyporesponsive) or high (hyper-responsive) levels of tdTomato reporter expression. These populations were sequenced to reveal the RNA targets. As expected, gRNAs targeting components of the STING pathway, including IRF3 and STING itself, were enriched in the hyporesponsive cells and depleted in the hyper-responsive cells, corroborating the success of the screening procedure. Other “hits” in the screen were examined for their role in CDN transport.

SLC19A1 = molecular target: T1, SLC19A1 (Homo sapiens, UniProt P41440); assay: Reporter response to CDNs in THP-1 cells with SLC19A1 knocked down or overexpressed; conditions: SLC19A1 knockdown vs control, synthetic CDN 1.7 μg/ml, hIFNβ 100 ng/ml, 20 h
T1 sequence (P41440 1-591): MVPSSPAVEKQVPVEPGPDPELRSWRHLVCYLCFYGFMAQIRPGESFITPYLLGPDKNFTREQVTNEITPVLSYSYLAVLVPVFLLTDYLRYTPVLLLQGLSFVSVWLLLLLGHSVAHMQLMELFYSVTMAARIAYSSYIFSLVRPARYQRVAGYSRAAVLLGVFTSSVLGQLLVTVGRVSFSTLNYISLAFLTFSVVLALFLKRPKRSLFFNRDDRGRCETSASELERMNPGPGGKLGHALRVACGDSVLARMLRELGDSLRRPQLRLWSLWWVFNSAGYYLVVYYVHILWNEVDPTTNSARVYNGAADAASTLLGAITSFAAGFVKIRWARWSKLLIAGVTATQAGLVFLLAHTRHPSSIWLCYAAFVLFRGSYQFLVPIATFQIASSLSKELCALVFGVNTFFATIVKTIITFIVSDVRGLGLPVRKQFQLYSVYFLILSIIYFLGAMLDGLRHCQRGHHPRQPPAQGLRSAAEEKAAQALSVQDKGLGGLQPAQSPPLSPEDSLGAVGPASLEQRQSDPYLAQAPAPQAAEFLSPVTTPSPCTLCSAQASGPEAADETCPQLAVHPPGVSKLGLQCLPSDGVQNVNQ

effect of knocking down SLC19A1 expression on the response to the stimulant (SLC19A1): no effect
Substance: hIFNβ: human interferon-beta used as control stimulant
tdTomato reporter expression upon stimulation [1]: induced
